## Measured affinities in a library of Ab-91 heavy chain variants

Antigen: PDVDLGDISGINAS, a 14-residue peptide of the SARS-CoV-2 spike HR2 region.

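The starting antibody came from a phage panning campaign against this peptide. The library (AAYL51) carries one to three amino acid substitutions per variant, with no insertions or deletions. The scFvs were displayed on barcoded MATa yeast, the peptide on MATalpha yeast. After mating in shaken culture at 30 °C for 16 h, diploids were selected and their barcode pairs sequenced. Each replicate has its own calibration line, from reference interactions of the BCL2 family. There are three technical replicates.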

Parent: Ab-91, a human scFv built as VL, a (GGGGS)3 linker, VH. Only the CDRs of the heavy chain vary.
VL: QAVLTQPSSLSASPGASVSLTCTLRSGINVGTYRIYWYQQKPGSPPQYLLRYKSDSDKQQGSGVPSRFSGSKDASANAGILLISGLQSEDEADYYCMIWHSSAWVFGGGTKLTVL
VH: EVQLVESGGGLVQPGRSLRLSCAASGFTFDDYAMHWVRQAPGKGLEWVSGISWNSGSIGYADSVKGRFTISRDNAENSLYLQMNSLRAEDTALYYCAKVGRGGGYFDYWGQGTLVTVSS

Each variant is given by its three heavy chain CDRs, as the data file delimits them; those of the parent are GFTFDDYAMH, GISWNSGSIGYADSVK, VGRGGGYFDY.
Values are log10 of the apparent Kd in nM; lower means stronger binding.
A mean of the replicates is given; it leaves out those without a signal.
Where no diploid with the target was found in that replicate, the entry reads "n.d.": below detection, most likely a poor binder, though not proof of it.
In this assay the parent's reference entry averaged 1.86; its copy inside this library read 0.88.
Background: pairings of library AAYL51 with three empty control strains gave a value in 21% of cases (median 4.54, 5th percentile 3.26). Values in that range, when seen in few replicates, are hard to tell from nonspecific mating. Also given: how often the same scFv was detected with the empty control strains, with their mean in brackets.

CDR-H1	CDR-H2	CDR-H3	replicates, log10 nM	log10 Kd (nM), mean	control signals
GFTFDDYAMH	GISWNSSSIGYADSHK	VGRAGGYFDY	4.54 5.16 5.53	5.07	4 of 9 (4.65)
GFTFDDYVMH	GRSWNSGSIGYADSVH	VGRGGGYFDY	n.d. n.d. n.d.	n.d.	1 of 9 (5.04)
GFTFDDYAWH	GISWNSGSIGYADSVK	CGQGGGYFDY	n.d. n.d. n.d.	n.d.	0 of 9
GFTLDDYAMH	GISWNSGSIGYADSVK	VNRRGGYFDY	4.57 5.43 4.59	4.86	6 of 9 (4.81)
GFTFDDYAMH	GISWNSGQIGYADSVE	LGRGGGYFDY	4.58 4.07 4.50	4.38	3 of 9 (4.37)
SCTFDDYAMH	GISWDSGSIGYADSVK	VGRGGGYFDY	n.d. n.d. n.d.	n.d.	0 of 9
GFTFDSYAMH	GISWNSGSIGYADSVV	VGRWGGYFDY	n.d. 5.32 n.d.	5.32	1 of 9 (4.23)
GFDFDDPAMH	GISWNSFSIGYADSVK	VGRGGGYFDY	n.d. n.d. 5.84	5.84	6 of 9 (5.33)
GFSFDDYANH	GISVNSGSIGYADSVK	VGRGGGYFDY	n.d. n.d. 3.95	3.95	4 of 9 (4.58)
GFTFDDYAMH	GIEWNSGSIGYADSVK	HGRGGGYFHY	n.d. n.d. 5.02	5.02	2 of 9 (4.09)
GFTFDDYAMH	VISWNSGSRGYADSVK	VGRGGGYYDY	5.02 5.60 n.d.	5.31	9 of 9 (4.93)
GFTFCDYAMH	GRSWNSGSIVYADSVK	VGRGGGYFDY	n.d. n.d. n.d.	n.d.	0 of 9
GFTFDDYASH	GISWNSGSIGTADSVK	VGRNGGYFDY	5.08 4.46 4.61	4.72	1 of 9 (4.62)
GFTFDDYAMH	GISWNSGSIGYADSKK	VGRGGGYFDY	n.d. n.d. n.d.	n.d.	0 of 9
GFTFDDYACH	GIWWNSGSIGYADSVK	VGRGGGYFDY	4.69 5.42 n.d.	5.06	5 of 9 (5.21)
GFTFDDVAMH	GISWNSGSIGYADSTK	TGRGGGYFDY	3.22 n.d. n.d.	3.22	0 of 9
GFTFDDYAMH	GISWNSGSIGYADSVK	VGRMGGYFSY	1.76 1.60 1.32	1.56	2 of 9 (5.47)
GFTFDDYAMH	GISWNSGSRGYADSQK	VGRGGGYFDA	4.28 n.d. 5.25	4.76	8 of 9 (4.73)
GFTFDDYRMH	GISWNSGSWGYADSVK	CGRGGGYFDY	1.23 1.82 1.07	1.37	1 of 9 (3.71)
GFTFDDYATH	GISYNSESIGYADSVK	VGRGGGYFDY	n.d. n.d. n.d.	n.d.	0 of 9
GFTFDDNAMH	GISWNSGSIPYHDSVK	VGRGGGYFDY	n.d. n.d. n.d.	n.d.	0 of 9
GFTFDNYAMH	GISWNSGSIGYADSVK	VGRGGNYFAY	0.16 0.44 -0.09	0.17	0 of 9
GNTFDDYAMH	GISWNSGSIGYMDSVK	VGRGGGYFDY	n.d. n.d. n.d.	n.d.	0 of 9
GFTFDDYAMH	GQSWNSWAIGYADSVK	VGRGGGYFDY	n.d. n.d. n.d.	n.d.	0 of 9
GFTFDDYQLH	GISWNSGSIGYADSVK	VGRGGGYFDY	4.28 4.26 3.91	4.15	3 of 9 (4.26)
GFTFDDYAMH	GILLNSGSIGYADSVP	VGRGGGYFDY	n.d. n.d. n.d.	n.d.	0 of 9
GFTFDDYAMH	GISWNSGSIGYNDSVK	VGRGWGLFDY	n.d. 4.99 n.d.	4.99	2 of 9 (3.94)
GFTFDSQAMH	GISWNSGSIGYADSVK	VGRGGGYFMY	n.d. n.d. n.d.	n.d.	1 of 9 (3.01)
GFTFDDYAMH	GISWPSGSIEYADSVK	VGRGGGCFDY	n.d. 4.49 n.d.	4.49	2 of 9 (4.55)
GGTFDDYAMH	GISWNSGSIGYADSVK	VGRGGGYTDY	n.d. 6.38 n.d.	6.38	4 of 9 (4.25)
GFTFDDYAMH	GISWNSGSIKYADSEK	VGRGGGYQDY	4.92 n.d. n.d.	4.92	3 of 9 (4.72)
GFTFDDYAMH	GISWNSGSIGYADSVW	VGRGGGYFDR	1.38 1.53 1.16	1.36	4 of 9 (5.25)
GFTMDDYAMI	GISWNSGSIGYADSVK	VGRGGGYFDT	3.84 5.84 4.59	4.76	2 of 9 (4.55)
GFTGDDYAMH	GISKNSGSIGYADSVK	VGRGCGYFDY	3.54 4.78 n.d.	4.16	2 of 9 (3.38)

Extract of 4 entries:

| CDR-H1 | CDR-H2 | CDR-H3 | replicates, log10 nM | log10 Kd (nM), mean | control signals |
|---|---|---|---|---|---|
| GFTLDDYAMH | GISWNSGSIGYADSVK | VNRRGGYFDY | 4.57 5.43 4.59 | 4.86 | 6 of 9 (4.81) |
| GFDFDDPAMH | GISWNSFSIGYADSVK | VGRGGGYFDY | n.d. n.d. 5.84 | 5.84 | 6 of 9 (5.33) |
| GFTFDDYAMH | GISWNSGQIGYADSVE | LGRGGGYFDY | 4.58 4.07 4.50 | 4.38 | 3 of 9 (4.37) |
| GGTFDDYAMH | GISWNSGSIGYADSVK | VGRGGGYTDY | n.d. 6.38 n.d. | 6.38 | 4 of 9 (4.25) |

Reference: Engelhart et al. 2022, doi:10.1038/s41597-022-01779-4. File: FLAb, binding data.